# Test results: patent publication US5955489A, “Taxane derivatives, the preparation thereof and formulations containing them” (Indea S.p.A., priority 1996, dated 1999)
# Tested on: Line MCF7-ADRr (adriamycin-resistant)
# Assay: cytotoxicity on an adriamycin-resistant cell line (Line MCF7-ADRr)
# Assay type: cell-based
# Details: read-out: IC50 Line MCF7-ADRr
row,SMILES,IC50 [nM]
1,"CC(=O)O[C@@]12CO[C@@H]1CC1NN=C3C(=O)C4=C(C)[C@@H](OC(=O)[C@H](O)[C@@H](NC(=O)c5ccccc5)c5ccccc5)C[C@@](O)([C@@H](OC(=O)c5ccccc5)[C@H]2[C@]31C)C4(C)C (stereo partly drawn) [Compound of example 2, 10-deacetyl-10-dehydro-Paclitaxel pyrazoline]",600
2,"CC(=O)O[C@@]12CO[C@@H]1CC1NN=C3C(=O)C4=C(C)[C@@H](OC(=O)[C@H](O)[C@H](CC(C)C)NC(=O)OC(C)(C)C)C[C@@](O)([C@@H](OC(=O)c5ccccc5)[C@H]2[C@]31C)C4(C)C (stereo partly drawn) [Compound of example 5, 13-(N-Boc-3'-isobutyl)-isoserinyl-10-dehydrobaccatine III pyrazoline]",190
3,"CC(=O)O[C@@]12CO[C@@H]1CC1NN=C3C(=O)C4=C(C)[C@@H](OC(=O)[C@H](O)[C@@H](NC(=O)OC(C)(C)C)c5ccccc5)[C@@H]5OC(=O)O[C@]5([C@@H](OC(=O)c5ccccc5)[C@H]2[C@]31C)C4(C)C (stereo partly drawn) [Compound of example 6, 13-(N-Boc-phenyl-isoserinyl)-1,14-carbonate10-dehydro-10-deacetyl-baccatine III pyrazoline]",102
